Experiments:
Type in all cases: biochemical
Conditions in all cases: human recombinant enzyme, 4-nitrophenylacetate as substrate
[1] = target: hCA II (Homo sapiens, UniProt P00918); test: CA inhibition by the esterase assay, hCA II
[2] = target: T1, hCA I (Homo sapiens, UniProt P00915); test: CA inhibition by the esterase assay, hCA I
T1 construct: purchased

[3] = target: T2, hCA IX (Homo sapiens, UniProt Q16790); test: CA inhibition by the esterase assay, hCA IX
T2 construct: purchased

- IC50 [1]: > 100 µM
- IC50 [2]: > 100 µM
- IC50 [3]: 0.5 µM
SMILES: O=c1ccc2ccc(O)cc2o1 [Umbelliferone, 7-hydroxy coumarin, reference compound]

Reference: PMC9458059, “Design, Synthesis and Biological Evaluation of New Carbohydrate-Based Coumarin Derivatives as Selective Carbonic Anhydrase IX Inhibitors via “Click” Reaction” (Molecules, 2022)
